This is an account of results in US10174202B2, “Dyes with phosphinic acid, phosphinate, phosphonate and phosphonamidate substituents as auxochromic groups and methods for preparing the same” (Max-Planck-Gesellschaft zur Foerderung der Wissenschaften …, priority 2017, dated 2019).

A short description of data set [1]: Absorption spectroscopy (UV/Vis). The class given is physicochemical. As for the experimental part:
(§1) Absorption spectra were recorded with a Varian Cary 4000 UV-Vis double-beam spectrophotometer (Agilent Technologies, USA). For the determination of the absorption spectra, quartz cells with a 1 cm path length were used. Emission spectra and fluorescence quantum yield were obtained on a Quantaurus-QY Absolute PL quantum yield spectrometer C11347 (Hamamatsu Photonics, Japan) or on a Varian Cary Eclipse fluorescence spectrometer (Agilent Technologies, USA).

Data set [2] is described as follows: Emission spectra and fluorescence quantum yield. The class given is physicochemical. How it is done:
as §1

Several values for one entry are separate records, joined by “and”; a condition that tells them apart may be missing. Equal values may be shown once.

As for `COP(=O)(OC)c1c2ccc(=[N+](C)C)cc-2oc2cc(N(C)C)ccc12.O=C([O-])C(F)(F)F` [Compound 5, 9-(Dimethoxyphosphoryl)-3,6-bis(dimethylamino)-9H-xanthenylium trifluoroacetate], the Absorption max. in data set [1] (in aq. PBS, pH 7.4) is 597 nm.
`CN(C)c1ccc2c([PH](=O)O)c3ccc(N(C)C)cc3[n+](CCCC(=O)O)c2c1.O=C([O-])C(F)(F)F` [Compound 23, 10-(3-Carboxypropyl)-3,6-bis(dimethylamino)-9-(hydroxyhydrophosphoryl)acridinium trifluoroacetate]: the Emission max. in data set [2] (in aq. PBS, pH 7.4) turned out to be 595 nm.
Consider “Ethyl [3,6-bis(dimethylamino)-9H-xanthenylium-9-yl]phosphonate [Compound 11]”, for which the Stability entry in the data set “Stability of the dyes” is listed as “moderate”. In data set [1] (in acetonitrile), the Absorption max. stood at 565 nm; the “ε at absorption max.” value was 63519 M⁻¹ cm⁻¹ and 63500 M⁻¹ cm⁻¹. In addition, in data set [1] (in aq. PBS, pH 7.4), the Absorption max. was 597 nm; the “ε at absorption max.” value was 66564 M⁻¹ cm⁻¹ and 66600 M⁻¹ cm⁻¹. In addition, in data set [2] (in acetonitrile), the Emission max. amounted to 595 nm; the “QY (fluorescence quantum yield, Φfl)” value was 0.44; the Stokes shift stood at 30 nm. In data set [2] (in aq. PBS, pH 7.4), the Emission max. is listed as 633 nm; the “QY (fluorescence quantum yield, Φfl)” value was 0.22; the Stokes shift came to 36 nm.
